# Experimental data published in patent publication US20240075157A1.
# By UniProt entry, the sequences of proteins in these tests, tags left out. Residues count along the entry.
# UniProt P12314, 16-288 limits assumed: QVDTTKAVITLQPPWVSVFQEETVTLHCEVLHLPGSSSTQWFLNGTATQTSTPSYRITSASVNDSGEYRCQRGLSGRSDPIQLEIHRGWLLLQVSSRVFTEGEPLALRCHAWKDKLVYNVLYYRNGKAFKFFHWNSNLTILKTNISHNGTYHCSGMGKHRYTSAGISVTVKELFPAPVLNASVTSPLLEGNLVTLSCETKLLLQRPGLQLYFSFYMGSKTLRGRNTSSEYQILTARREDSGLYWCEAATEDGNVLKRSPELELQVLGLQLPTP
# Molecular target: human FcγR1 (hFcγR1) (human) (UniProt P12314)
# Assay: BLI, Hu Fc1
row,Substance,normalized binding response
1,Ab5 (anti-CD45 antibody) LALA variant,21 % of WT
2,Ab5 N297A.I253A.H310A.H435A (antibody),25 % of WT

# Other lines, results leading:
row,normalized binding response,Substance
1,1 % of WT,Ab5 (anti-CD45 antibody) D265C.N297A.H435A variant
2,1 % of WT,Ab5 LALA.P329G (antibody)
3,4 % of WT,Ab5 LALA.P331G (antibody)
